Source: patent publication US9012461B2 (dated 2015)

Protein sequences, listed by entry. Tags and fused reporters are not part of them. Chains listed by the source or under a name are the forms on record and can include a tag or linker.
UniProt P35916, other isoform, or with tags, fused parts or gaps del 949-1002: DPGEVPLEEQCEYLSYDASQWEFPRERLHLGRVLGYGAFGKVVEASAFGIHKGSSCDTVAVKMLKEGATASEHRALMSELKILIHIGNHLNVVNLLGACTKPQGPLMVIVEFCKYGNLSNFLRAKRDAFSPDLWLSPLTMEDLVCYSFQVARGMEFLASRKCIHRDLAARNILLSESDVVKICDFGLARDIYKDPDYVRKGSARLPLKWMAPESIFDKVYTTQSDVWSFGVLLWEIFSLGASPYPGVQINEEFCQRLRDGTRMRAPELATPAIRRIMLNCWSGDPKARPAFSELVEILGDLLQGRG

Target: VEGFR3 cytoplasmic domain (amino acids 818-1177, lacking 949-1002 of UniProt accession number P35916) (Homo sapiens (Human), UniProt P35916, DEL949-1002)
Conditions: values marked *: modified assay, N-terminal Hexa-His-fusion protein

Q: For `NC(=O)Cc1cccnc1CCc1nc(Nc2ccc(C3CCCNC3)cc2)ncc1C(F)(F)F` (stereo not shown) [Compound 39, 2-(2-(2-(2-((4-(Piperidin-3-yl)phenyl)amino)-5-(trifluoromethyl)pyrimidin-4-yl)ethyl)pyridin-3-yl)acetamide], which IC50 is on record?
A: 23 nM
